According to publication PMC4431592 (Journal of medicinal chemistry, 2015):

Assays:
Huh-7.5 cells = assay: Cellular viability, alamarBlue-based assay; settings: HCVpp entry assay, 4 hour treatment
HCV = settings: read-out: EC50 for the antiviral effect; cited from earlier work

Row | Structure (SMILES) | effect on cellular viability (in words) (Huh-7.5 cells) | EC50 (HCV) [nM]
1 | COc1cc(-c2cnc3c(N4CCOCC4)snc3c2)ccc1N [Compound 12i, 2-Methoxy-4-(3-morpholinoisothiazolo[4,3-b]pyridin-6-yl)aniline] | minimal effect on cellular viability | –
2 | C#Cc1cccc(Nc2ncnc3cc(OCCOC)c(OCCOC)cc23)c1 [erlotinib] | – | 500 to 1500
